FAP inhibitory activity and IC50 data for one compound are collected here from patent publication EP4847497A1, “FIBROBLAST ACTIVATION PROTEIN-TARGETING MATERIAL BASED ON 3-STYRYLPYRIDINE STRUCTURE” (dated 2026).

Protein sequences, listed by entry. Tags and fused reporters are not part of them.
UniProt Q12884, whole entry: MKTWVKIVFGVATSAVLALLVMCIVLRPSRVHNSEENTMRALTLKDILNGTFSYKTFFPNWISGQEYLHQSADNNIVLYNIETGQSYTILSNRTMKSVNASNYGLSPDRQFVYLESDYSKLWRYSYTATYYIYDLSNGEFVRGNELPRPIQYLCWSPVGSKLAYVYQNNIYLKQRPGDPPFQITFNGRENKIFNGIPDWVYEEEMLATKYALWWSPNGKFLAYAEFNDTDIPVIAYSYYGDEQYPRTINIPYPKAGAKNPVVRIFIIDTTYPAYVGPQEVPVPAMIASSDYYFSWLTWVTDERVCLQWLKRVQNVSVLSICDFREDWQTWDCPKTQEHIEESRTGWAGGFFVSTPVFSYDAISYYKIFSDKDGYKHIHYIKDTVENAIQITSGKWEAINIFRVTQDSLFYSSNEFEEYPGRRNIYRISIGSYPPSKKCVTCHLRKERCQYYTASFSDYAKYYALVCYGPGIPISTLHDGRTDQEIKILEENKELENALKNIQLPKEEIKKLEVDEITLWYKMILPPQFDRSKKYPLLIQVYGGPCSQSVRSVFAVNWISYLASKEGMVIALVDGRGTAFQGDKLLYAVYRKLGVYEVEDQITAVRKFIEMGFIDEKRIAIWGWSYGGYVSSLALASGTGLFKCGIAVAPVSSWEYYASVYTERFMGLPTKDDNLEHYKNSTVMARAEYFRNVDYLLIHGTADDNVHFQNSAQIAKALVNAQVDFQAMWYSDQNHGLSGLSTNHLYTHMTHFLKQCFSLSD

The structures appear in SMILES notation.

The assay addresses FAP (Homo sapiens, UniProt Q12884). Description: In vitro FAP inhibitory activity, Ala-Pro-AMC substrate fluorescence assay.

For the compound `N#CC1CCCN1C(=O)CNC(=O)c1ccc(/C=C/c2ccc(O)cc2)cn1` (centres unmarked), the FAP inhibitory activity result (in words, compared with UAMC 1110) is “excellent FAP inhibitory activity similar to UAMC 1110”. Besides, the IC50 (substrate 2.5 µM, FAP 20 nM, pH 7.4) worked out at 43 nM.
